{
  "source": "paper PMC12462173",
  "about": "“Evaluation of in vitro drug-drug interactions of ivermectin and antimalarial compounds” (Malaria Journal, 2025)",
  "test_system": "pooled human liver microsomes",
  "description": "Pooled human liver microsomes (containing 20 mg/mL protein) were thawed on ice, and the reactions were conducted in a 96-well plate (1 mL, Agilent Technologies, Santa Clara, CA, USA). The assay buffer consisted of 0.1 M potassium phosphate buffer (pH 7.4). The premix solutions for each condition were prepared with specific volumes of each component, as outlined in Table S1. The premix solution was prepared by combining ivermectin, antimalarial drug, microsomes, and buffer. Three replicates of each premix solution were prepared, and 475 µL of each premix was transferred into separate wells of the 96-well plate. The plate was incubated at 37 °C for 5 min with gentle shaking (300 rpm). Following incubation, 25 µL of 20 mM NADPH was added to each well, and the solution was mixed thoroughly. The final incubation mixture (500 µL) contained a total microsome concentration of 0.53 mg/mL. To monitor the metabolism of ivermectin, 50 µL from each well was collected at 0, 15, 30, 45, 60, 90, 120, and 150 min and transferred to a new plate containing 200 µL of cold acetonitrile and 100 ng/mL of ivermectin-D2 (internal standard). The collection plate was kept on ice during sampling. After sample collection, the plate was sealed and centrifuged at 1,100 × g for 15 min at 4 °C. A 100 µL aliquot of the clear supernatant was transferred to a new plate for immediate LC–MS analysis.\nThe LC system consisted of an Agilent 1260 quaternary pump, an Agilent 1260 autosampler (set at 6 °C), and an Agilent 1290 column compartment (set at 40 °C). Five µL of sample was analysed on an Acquity UPLC HSS T3 reversed-phase column (2.1 × 100 mm, 1.8 μm) with a precolumn (2.1 × 5 mm, 1.8 μm) under a linear gradient. The mobile phase consisted of water with 10 mM ammonium acetate and 0.1% formic acid (A) and acetonitrile:water (95:5, v/v) with 10 mM ammonium acetate and 0.1% formic acid (B), at a flow rate of 0.3 mL/min. […] Data were acquired from m/z 100–1,000 in TOF–MS scan mode using Analyst TF Software 1.8, and ivermectin quantification (ivermectin peak area/internal standard peak area) was performed with MultiQuant Software (Sciex, Framingham, MA, USA) with a high resolution TOF–MS scan mode.\nThe metabolism rate of ivermectin was evaluated based on the normalized peak area (%) of ivermectin over a total of 150 min of incubation. […] This normalized value was further adjusted relative to the pre-incubation ivermectin peak area (zero-minute sample) within a sample collection series, resulting in final ivermectin concentrations expressed as relative peak areas. […] Furthermore, the relative difference (%) in in vitro metabolism rate (i.e. difference between regression slopes) for ivermectin alone and when co-incubated with an antimalarial was calculated as shown in Eq. 1.",
  "data": [
    {"smiles": "COc1cc(NC(C)CCCN)c2ncccc2c1", "note": "(stereo not shown) [Primaquine]", "values": [
      {"measurement": "DDI effect on the in vitro metabolism rate of ivermectin (class in words)", "value": "little impact"},
      {"measurement": "Intercept (95%CI) of linear regression of ivermectin relative peak area (%), combination", "setting": "human, pH 7.4", "value": "97.6 (95.7-99.4)"},
      {"measurement": "Relative difference (95% CI) in in vitro metabolism rate of ivermectin, alone vs co-incubated with the antimalarial", "setting": "human, pH 7.4", "value": "7.72% (1.46–13.98)"},
      {"measurement": "Slope (95%CI) of linear regression of ivermectin relative peak area (%) over time, combination", "setting": "human, pH 7.4", "value": "-0.40 (-0.42 to -0.38)"}
    ]}
  ]
}
